From patent publication US12016922B2, “Stabilized aqueous antibody compositions” (Arecor Limited, priority 2012, dated 2024)

Tests used:
[1] = system: rituximab; experiment: Aggregation of rituximab formulations on storage, % HMWS by size exclusion chromatography; assay type: physicochemical; conditions: rituximab 140 mg/ml, trehalose 200 mM, pH 6.5, 40° C., additive 1 mg/ml
[2] = system: Certolizumab pegol; experiment: Aggregation of certolizumab pegol formulations on storage, % HMWS by size exclusion chromatography; assay type: physicochemical; conditions: Certolizumab pegol 100 mg/ml, 40° C.

NCCNCCN [Diethylenetriamine]
% HMWS 26 weeks [1]: 1.51%

NCCNCCNCCN [Triethylenetetramine]
% HMWS 8 weeks ([2]; histidine 10 mM pH 6.0, 1,2-propanediol 200 mM, additive 1 mg/ml): 1.02% | % HMWS 8 weeks ([2]; histidine 10 mM pH 6.0, NaCl 150 mM, additive 1 mg/ml): 1.51% | % HMWS 8 weeks ([2]; histidine 10 mM pH 6.0, NaCl 150 mM, additive 3 mg/ml): 1.02%
